# scFv variants of Ab-14 (light chain) against a SARS-CoV-2 spike peptide

Data: MIT Lincoln Laboratory AlphaSeq set, Engelhart et al. 2022, doi:10.1038/s41597-022-01779-4, as distributed in FLAb.

The target is the same throughout: PDVDLGDISGINAS, from the HR2 region of SARS-CoV-2 spike.

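The starting antibody came from a phage panning campaign against this peptide. AAYL50 was designed without a model: most single CDR substitutions and a random sample of double and triple ones. Affinity was read by AlphaSeq, a pooled yeast mating assay with surface-displayed partners. The frequency of each diploid, read from paired DNA barcodes, reflects how well the two displayed proteins bind. A regression on co-assayed BCL2-family reference pairs converts the normalised counts of each replicate to an apparent Kd. The assay was run in three technical replicates.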

Each scFv is VH, a 15-residue (Gly4Ser)3 linker, VL, as in the parent Ab-14, and differs from it in the CDRs of the light chain only.
VH: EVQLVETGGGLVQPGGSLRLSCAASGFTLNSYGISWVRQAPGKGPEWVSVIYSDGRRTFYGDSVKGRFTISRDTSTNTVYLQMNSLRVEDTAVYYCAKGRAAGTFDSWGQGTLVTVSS
VL: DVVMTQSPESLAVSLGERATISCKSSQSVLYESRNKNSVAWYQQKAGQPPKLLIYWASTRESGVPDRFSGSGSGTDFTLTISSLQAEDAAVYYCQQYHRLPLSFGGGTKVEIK

Changes read parent residue, position, new residue, counted from the first residue of the VL shown.
Values are log10 of the apparent Kd in nM; lower means stronger binding.
Averages over replicates are reported, and they cover detected replicates only.
"nd" marks a missing value. The strain was present, yet no cells mated with the target were sequenced in that replicate, which points to weak or no binding.

{"changes": "L30R/E61N/Y97D", "replicates, log10 nM": "nd / nd / nd", "log10 Kd (nM), mean": "nd", "control signals": "0/9"}
{"changes": "S28Y/E32C/Y97T", "replicates, log10 nM": "nd / nd / nd", "log10 Kd (nM), mean": "nd", "control signals": "0/9"}
{"changes": "H98N/R99T/L102R", "replicates, log10 nM": "nd / nd / 5.95", "log10 Kd (nM), mean": "5.95", "control signals": "1/9 (3.26)"}
{"changes": "S38V/A57I/R60S", "replicates, log10 nM": "5.99 / 3.96 / 4.79", "log10 Kd (nM), mean": "4.91", "control signals": "4/9 (4.16)"}
{"changes": "N35M/S58M/S62Y", "replicates, log10 nM": "nd / nd / nd", "log10 Kd (nM), mean": "nd", "control signals": "0/9"}
{"changes": "Y31D", "replicates, log10 nM": "0.03 / 0.34 / 0.19", "log10 Kd (nM), mean": "0.19", "control signals": "2/9 (3.43)"}
{"changes": "S28N/E61G/S62P", "replicates, log10 nM": "1.49 / 1.53 / 1.49", "log10 Kd (nM), mean": "1.50", "control signals": "5/9 (4.44)"}
{"changes": "T59E/Q95D/L100Q", "replicates, log10 nM": "nd / 3.16 / nd", "log10 Kd (nM), mean": "3.16", "control signals": "1/9 (3.47)"}
{"changes": "E32C/V39G/L100D", "replicates, log10 nM": "nd / 4.21 / nd", "log10 Kd (nM), mean": "4.21", "control signals": "0/9"}
{"changes": "Y31Q/Q95G/L102E", "replicates, log10 nM": "0.40 / 0.84 / 0.66", "log10 Kd (nM), mean": "0.63", "control signals": "0/9"}
{"changes": "R34Q/S62H/S103A", "replicates, log10 nM": "nd / nd / nd", "log10 Kd (nM), mean": "nd", "control signals": "0/9"}
{"changes": "N37T/S38Q/S58C", "replicates, log10 nM": "4.29 / nd / nd", "log10 Kd (nM), mean": "4.29", "control signals": "0/9"}
{"changes": "W56C/L100N/S103Y", "replicates, log10 nM": "0.45 / 0.93 / 0.69", "log10 Kd (nM), mean": "0.69", "control signals": "0/9"}
{"changes": "Q95A/S103K", "replicates, log10 nM": "3.29 / nd / nd", "log10 Kd (nM), mean": "3.29", "control signals": "0/9"}
{"changes": "K36C/S58M/H98L", "replicates, log10 nM": "1.75 / 1.69 / 2.06", "log10 Kd (nM), mean": "1.83", "control signals": "4/9 (4.34)"}
{"changes": "E32T/A57G/R99V", "replicates, log10 nM": "1.57 / 1.72 / 1.50", "log10 Kd (nM), mean": "1.60", "control signals": "3/9 (3.92)"}
{"changes": "E32H/S33A/V39C", "replicates, log10 nM": "3.20 / nd / nd", "log10 Kd (nM), mean": "3.20", "control signals": "0/9"}
{"changes": "K24W/S25K/S38M", "replicates, log10 nM": "nd / nd / nd", "log10 Kd (nM), mean": "nd", "control signals": "1/9 (3.81)"}
{"changes": "S26E/Y31S/E61G", "replicates, log10 nM": "1.99 / 1.69 / 1.98", "log10 Kd (nM), mean": "1.89", "control signals": "2/9 (3.10)"}
{"changes": "S28P/R60D/Q95T", "replicates, log10 nM": "nd / nd / nd", "log10 Kd (nM), mean": "nd", "control signals": "2/9 (3.47)"}
{"changes": "A40H/E61G/S62H", "replicates, log10 nM": "nd / nd / nd", "log10 Kd (nM), mean": "nd", "control signals": "2/9 (4.17)"}
{"changes": "Y31E/A40G/H98Y", "replicates, log10 nM": "3.19 / 2.31 / 2.86", "log10 Kd (nM), mean": "2.79", "control signals": "1/9 (3.08)"}
{"changes": "V39Y/E61T/Q96G", "replicates, log10 nM": "nd / nd / nd", "log10 Kd (nM), mean": "nd", "control signals": "1/9 (4.75)"}
{"changes": "H98K/L100D/P101C", "replicates, log10 nM": "nd / nd / nd", "log10 Kd (nM), mean": "nd", "control signals": "1/9 (4.27)"}
{"changes": "S38E/A57M/S103M", "replicates, log10 nM": "nd / nd / nd", "log10 Kd (nM), mean": "nd", "control signals": "0/9"}
{"changes": "K36E/W56M/L100E", "replicates, log10 nM": "nd / nd / nd", "log10 Kd (nM), mean": "nd", "control signals": "1/9 (3.78)"}
{"changes": "Y31S/N35G/H98R", "replicates, log10 nM": "2.07 / 2.29 / 1.79", "log10 Kd (nM), mean": "2.05", "control signals": "0/9"}
{"changes": "S28Y/E32F/R34K", "replicates, log10 nM": "nd / 2.88 / nd", "log10 Kd (nM), mean": "2.88", "control signals": "1/9 (3.29)"}
{"changes": "Y31L/S33Y/P101E", "replicates, log10 nM": "1.93 / 1.85 / 1.97", "log10 Kd (nM), mean": "1.91", "control signals": "4/9 (4.17)"}
{"changes": "Y31P/S38L/R60Q", "replicates, log10 nM": "nd / nd / nd", "log10 Kd (nM), mean": "nd", "control signals": "0/9"}
{"changes": "Y31W/V39L/S62W", "replicates, log10 nM": "2.04 / 2.18 / 2.11", "log10 Kd (nM), mean": "2.11", "control signals": "5/9 (4.35)"}
{"changes": "K36I/E61I", "replicates, log10 nM": "1.15 / 1.24 / 1.30", "log10 Kd (nM), mean": "1.23", "control signals": "3/9 (4.33)"}

Three control strains display no target. For library AAYL50, 18% of the pairings with them gave a signal, with a median of 4.19 and one signal in twenty below 2.99, so weak values seen in few replicates may be background. For each scFv, signals with the empty controls are counted beside the result, with their mean in brackets.
For reference, the parent read 0.65 as the reference entry and 1.68 as a member of this library.